# Measured affinities in a library of Ab-14 light chain variants

Values reported by Li et al. 2023, doi:10.1038/s41467-023-39022-2 (FLAb copy).

The target is the same throughout: PDVDLGDISGINAS, from the HR2 region of SARS-CoV-2 spike.

The variants keep the heavy chain, the linker and the frameworks of Ab-14 (scFv order VH, a 15-residue (Gly4Ser)3 linker, VL).
VH: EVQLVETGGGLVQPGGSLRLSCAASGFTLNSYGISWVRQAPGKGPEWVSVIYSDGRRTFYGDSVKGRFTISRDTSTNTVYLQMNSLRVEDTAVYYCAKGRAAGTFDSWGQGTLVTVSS
VL: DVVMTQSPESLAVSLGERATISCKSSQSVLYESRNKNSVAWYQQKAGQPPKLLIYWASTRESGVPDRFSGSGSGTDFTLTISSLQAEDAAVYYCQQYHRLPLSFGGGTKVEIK

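This is the validation round: designs drawn from the data on random variants, tested in the same kind of assay. Their group label is 14L_Ctrl (Ctrl: baseline library sampled from a position-specific scoring matrix, with some repeated check sequences). AlphaSeq pools MATa yeast showing the antibodies with MATalpha yeast showing the peptide. After mating in shaken culture at 30 °C for 16 h, diploids were selected and their barcode pairs sequenced. Each replicate has its own calibration line, from reference interactions of the BCL2 family. There are six technical replicates.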

Positions count from residue 1 of the parent VL; S25L puts L in place of S. Scale: log10 of Kd in nM, estimated from mating counts; low values are strong binders. The mean shown is taken over the replicates in which the pair was detected. A pair that was not seen in that replicate is written "n.d."; this usually means weak binding, but a binder can also be missed. The authors averaged sequences with at least three values out of six and counted those with two or fewer as poor binders. The parent sequence was in this pool as ten entries: three were never detected, three once, and four in most replicates, with averages from 0.34 to 2.37. Nonspecific signal, from three strains lacking the peptide, appeared in 4% of pairings of all light chain designs, centred on 2.64 (5% of these signals below 1.59); values are not corrected for it. Also given: how often the same scFv was detected with the empty control strains, with their mean in brackets. Values of this round are not directly comparable with the first-round values of the same sequences.

changes,"log10 Kd, replicates","mean, log10 nM",control signals
S25L+E32M+R34E+R99H,0.77 1.18 0.61 0.87 0.51 1.28,0.87,1 of 18 (3.21)
W56A+E61I+Q96E,n.d. n.d. n.d. n.d. n.d. n.d.,n.d.,0 of 18
S25D+Q27W+R34K+S103P,n.d. n.d. 2.04 n.d. n.d. n.d.,2.04,0 of 18
T59M+Q96S,0.69 2.56 1.24 1.66 1.59 2.10,1.64,0 of 18
W56H+S103G,n.d. 1.22 n.d. 2.07 1.86 n.d.,1.72,1 of 18 (2.96)
E32Q+S33L+R99G,n.d. n.d. n.d. n.d. n.d. n.d.,n.d.,0 of 18
S33F+R34T+R99M,1.85 n.d. n.d. 1.65 n.d. 2.32,1.94,0 of 18
S25C+W56E+A57C+S58T+S103M,n.d. n.d. n.d. n.d. n.d. n.d.,n.d.,0 of 18
Y31D+E32Q+R34E+W56D+A57C,0.95 0.77 0.86 0.71 0.66 1.08,0.84,3 of 18 (2.99)
Q27T+T59L+S103C,n.d. n.d. 0.97 2.75 n.d. n.d.,1.86,0 of 18
R34D+K36D+Q96V,n.d. n.d. n.d. n.d. n.d. n.d.,n.d.,1 of 18 (1.61)
V29D+E32A,0.49 1.06 1.56 0.27 0.70 1.00,0.85,1 of 18 (1.09)
S28N+K36I+W56H+Q96S,n.d. n.d. n.d. n.d. n.d. n.d.,n.d.,0 of 18
S26P+S28A+S103E,n.d. n.d. n.d. n.d. n.d. 2.10,2.10,0 of 18
S28D+E32P+N35Y+K36W+W56A,0.92 0.11 0.15 0.87 0.14 0.37,0.43,0 of 18
W56K+S103A,-0.04 1.15 0.74 -0.40 0.13 0.77,0.39,0 of 18
E61A,1.51 2.19 2.16 2.41 1.87 2.15,2.05,2 of 18 (3.25)
S25D+S38N+H98I,n.d. n.d. n.d. n.d. n.d. n.d.,n.d.,1 of 18 (0.75)
Q27I+W56N,1.92 3.15 1.15 0.90 1.56 1.30,1.66,1 of 18 (1.41)
S38C+E61V+L102T,n.d. n.d. n.d. n.d. n.d. n.d.,n.d.,1 of 18 (1.63)
S28A+W56E,0.15 0.19 0.33 0.19 0.03 0.41,0.22,0 of 18
K24M+W56Q,0.93 0.62 0.78 0.55 1.63 1.14,0.94,1 of 18 (2.79)
Y31E+E61L,1.39 1.06 1.29 1.33 1.07 1.15,1.22,0 of 18
E32P+W56S+R99V,1.25 1.06 1.01 1.10 1.00 1.23,1.11,2 of 18 (2.20)
Y31A+K36I+W56Q+E61G,2.61 2.10 1.86 1.73 2.22 2.18,2.12,1 of 18 (2.49)
Q27E+V29A+R99N,n.d. n.d. n.d. 1.92 n.d. n.d.,1.92,0 of 18
N35Y+K36L+W56Q,0.81 1.27 0.58 1.01 1.42 1.01,1.02,0 of 18
S25M+Q27K+S62V+S103E,0.47 0.54 0.65 0.42 0.30 0.79,0.53,0 of 18
V29G+S62Y,1.50 n.d. 1.85 n.d. n.d. n.d.,1.68,0 of 18
N37R,n.d. 2.47 2.38 n.d. n.d. n.d.,2.42,1 of 18 (1.27)
S25M+R99A+L102E,n.d. 1.93 n.d. n.d. 2.33 1.90,2.05,1 of 18 (1.29)
S25A+W56A+Q96C+Y97P,n.d. n.d. n.d. n.d. n.d. n.d.,n.d.,0 of 18
S25L+S26M+Y31E+W56G+Y97V+R99I+L100S+L102N,n.d. n.d. n.d. n.d. n.d. n.d.,n.d.,0 of 18
S25L+K36H+W56A,-0.16 -0.06 -0.23 -0.34 -0.01 -0.05,-0.14,0 of 18
S26G+V29L+R34Q+V39A+W56Y,n.d. n.d. n.d. n.d. n.d. n.d.,n.d.,1 of 18 (1.80)
S25L+E61F+P101L,n.d. n.d. 1.26 1.43 1.74 n.d.,1.47,1 of 18 (1.24)
W56N+S62F,1.87 1.23 1.48 1.34 1.20 1.70,1.47,0 of 18
K36L+S103R,n.d. n.d. n.d. n.d. n.d. n.d.,n.d.,0 of 18
S38D,n.d. n.d. n.d. n.d. n.d. n.d.,n.d.,0 of 18
R34T+T59I+S62Y+Y97V+L102R,n.d. n.d. n.d. n.d. n.d. n.d.,n.d.,0 of 18
Q95P,n.d. n.d. n.d. n.d. n.d. n.d.,n.d.,0 of 18
S25I+R34A+N35T,0.88 1.10 0.93 0.80 0.68 1.08,0.91,3 of 18 (3.10)

The 6 strongest on average among those seen in every replicate, once more:

changes,"log10 Kd, replicates","mean, log10 nM",control signals
S25L+K36H+W56A,-0.16 -0.06 -0.23 -0.34 -0.01 -0.05,-0.14,0 of 18
S28A+W56E,0.15 0.19 0.33 0.19 0.03 0.41,0.22,0 of 18
W56K+S103A,-0.04 1.15 0.74 -0.40 0.13 0.77,0.39,0 of 18
S28D+E32P+N35Y+K36W+W56A,0.92 0.11 0.15 0.87 0.14 0.37,0.43,0 of 18
S25M+Q27K+S62V+S103E,0.47 0.54 0.65 0.42 0.30 0.79,0.53,0 of 18
Y31D+E32Q+R34E+W56D+A57C,0.95 0.77 0.86 0.71 0.66 1.08,0.84,3 of 18 (2.99)